{
  "source": "patent US7728132B2",
  "about": "“Compositions for stabilizing chlorinated water to sunlight decomposition, and methods of preparation thereof” (Enviro Tech Chemical Services, Inc., priority 2007, dated 2010)",
  "origin": "cited, not measured here",
  "settings": "cited from earlier work",
  "data": [
    {"compound": "O=c1[n-]c(=O)[nH]c(=O)[nH]1.[Na+]", "note": "[monosodium cyanurate]", "values": [
      {"measurement": "solubility relative to cyanuric acid", "result": "about twice the solubility of cyanuric acid"}
    ]}
  ]
}
